By Kd is commonly meant the equilibrium constant for the complex coming apart.

From paper PMC3643951, “Characterization of the S100A1 Protein Binding Site on TRPC6 C-Terminus” (PLoS ONE, 2013) come the findings set out here.

This assay has as its target T1, S100A1 protein, dansyl-labelled (human, UniProt P23297 1-94, dansyl (DNS) label from dansyl chloride, site not stated).
T1 construct: human S100A1; cDNA cloned into pET28b; No tag is mentioned; purification was by Phenyl Sepharose; also called DNS-S100A1; Ca2+-S100A1; source: E. coli BL21, purified (Phenyl Sepharose CL4B, Superdex 75), labelled with dansyl chloride
T1 sequence (looked up): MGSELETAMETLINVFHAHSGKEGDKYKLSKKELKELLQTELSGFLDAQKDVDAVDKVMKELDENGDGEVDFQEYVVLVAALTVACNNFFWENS
Kind of assay: fluorescence polarisation; steady-state fluorescence anisotropy; TRPC6 construct titrated into DNS-S100A1 solution (232 µM as printed) in presence of calcium ions; excitation 340 nm, emission 520 nm. As to conditions: both partners purified.

B1: TRPC6 C-terminal protein construct (801–878), wild type (domain or fragment, rat, UniProt Q99N78 801-878, looked up)
chain: NKRNEEKKFGILGSHEDLSKFSLDRNQLAHNKQSSTRSSEDFHLNSFSNPPRQYQKIMKRLIKRYVLQAQIDKESDEV
Regarding B1, the Kd came to 310 nM.
